Assay results reported in patent publication EP0888303B1, “SYNTHETIC DERIVATIVES OF RAPAMYCIN AS MULTIMERIZING AGENTS FOR CHIMERIC PROTEINS WITH IMMUNOPHILIN-DERIVED DOMAINS” (ARIAD Pharmaceuticals, Inc, priority 1996, dated 1997).

Sequences of proteins named here, by UniProt entry; tags and fusion partners are left off. A change or cut given only in a name is not applied to a line headed by its entry. Residues count along the entry.
UniProt P62942, whole entry, looked up, stated change not applied: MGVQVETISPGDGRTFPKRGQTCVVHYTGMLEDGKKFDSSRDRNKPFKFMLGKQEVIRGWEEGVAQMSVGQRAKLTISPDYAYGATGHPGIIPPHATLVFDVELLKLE
UniProt P62942, 2-108 F37L limits assumed: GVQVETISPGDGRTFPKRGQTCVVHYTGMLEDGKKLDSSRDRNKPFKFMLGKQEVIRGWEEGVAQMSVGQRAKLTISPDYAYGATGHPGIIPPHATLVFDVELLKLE
UniProt P62942, 2-108 limits assumed: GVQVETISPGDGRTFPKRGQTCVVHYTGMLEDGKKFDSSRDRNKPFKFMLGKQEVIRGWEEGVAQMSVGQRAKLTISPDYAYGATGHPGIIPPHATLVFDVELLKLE

What was measured:
Assay in all cases: Competitive Binding FP Assay
[1] = target: F36L mutant FKBP (Homo sapiens, UniProt P62942, F37L)
[2] = target: wild-type human FKBP12 (Homo sapiens, UniProt P62942)
[3] = target: F36M mutant FKBP (UniProt P62942); set-up: species or system human; conditions: read-out: F36M IC50; Synthetic Monomers table; normalized to value of FK506 run in the same experiment
[4] = target: F36A mutant FKBP (UniProt P62942); set-up: species or system human; conditions: read-out: F36A IC50; Synthetic Monomers table; normalized to value of FK506 run in the same experiment
[5] = target: mutant (F36V) FKBP (UniProt P62942); set-up: species or system human
[6] = target: F36I mutant FKBP (UniProt P62942); set-up: species or system human; conditions: read-out: F36I IC50; Synthetic Monomers table; normalized to value of FK506 run in the same experiment
[7] = read-out: F36L IC50, Synthetic Monomers table, normalized to value of FK506 run in the same experiment
[8] = read-out: wild-type IC50, Synthetic Monomers table, normalized to value of FK506 run in the same experiment
[9] = read-out: F36V IC50, Synthetic Monomers table, normalized to value of FK506 run in the same experiment
[10] = read-out: FKBPF36L binding affinity IC50
[11] = read-out: FKBPwt binding affinity IC50
[12] = read-out: FKBPF36V binding affinity IC50, Synthetic Multimerizers table, monomer value in brackets, mean of duplicates, normalized to FK506 = […] (substituted phenyl/lower aliphatic series: to AP1903 values)

IC50 ([1]; read-out: F36L IC50, tested form: HCl)	Compound	IC50 [1, 7]	IC50 [2, 8]	IC50 [3]	IC50 [4]	IC50 [5, 9]	IC50 [6]	IC50 [1, 10]	IC50 [2, 11]	IC50 [5, 12]
–	COc1ccc(CC[C@@H](OC(=O)[C@@H]2CCCCN2C(=O)[C@H](CC2CC2)c2cc(OC)c(OC)c(OC)c2)c2cccc(OCC(=O)O)c2)cc1OC	400 nM	–	–	–	–	–	–	–	–
–	CC[C@H](C(=O)N1CCCC[C@H]1C(=O)O[C@H](C)c1cccc(OCC(=O)O)c1)c1ccccc1	7470 nM	> 100000 nM	21100 nM	4840 nM	4280 nM	7550 nM	–	–	–
–	COc1ccc(CC[C@@H](OC(=O)[C@@H]2CCCCN2C(=O)[C@H](c2cc(OC)c(OC)c(OC)c2)C(C)C)c2cccc(OCC(=O)O)c2)cc1OC	6.1 nM	4890 nM	10 nM	16 nM	–	10 nM	6.1 nM	4890 nM	–
–	COc1ccc(CC[C@@H](OC(=O)[C@@H]2CCCCN2C(=O)c2sccc2C)c2cccc(OCC(=O)O)c2)cc1OC	1630 nM	> 100000 nM	5930 nM	5720 nM	2990 nM	5470 nM	–	–	–
–	CCC(C(=O)N1CCCC[C@H]1C(=O)O[C@H](CCc1ccc(OC)c(OC)c1)c1cccc(OCC(=O)O)c1)c1cccc(OC)c1 (some centres unmarked)	70 nM	115000 nM	119 nM	105 nM	37 nM	44 nM	–	–	–
–	CCC(CC)NC(=O)N1CCCC[C@H]1C(=O)O[C@H](CCc1ccc(OC)c(OC)c1)c1cccc(OCC(=O)O)c1	45 nM	14000 nM	66 nM	107 nM	–	138 nM	45 nM	14000 nM	–
–	CC[C@H](C(=O)N1CCC[C@H]1C(=O)O[C@H](CCc1ccc(OC)c(OC)c1)c1cccc(OCC(=O)O)c1)c1cc(OC)c(OC)c(OC)c1	359 nM	61800 nM	697 nM	665 nM	265 nM	351 nM	–	–	–
–	COc1ccc(CC[C@@H](OC(=O)[C@@H]2CCCCN2C(=O)C(=O)c2cc(OC)c(OC)c(OC)c2)c2cccc(OCC(=O)O)c2)cc1OC	143 nM	–	131 nM	1370 nM	107 nM	105 nM	–	–	–
–	CCC(CC)NC(=O)N1CCCC[C@H]1C(=O)O[C@H](CCN1CCOCC1)c1cccc(OCC(=O)O)c1	1520 nM	–	1240 nM	3530 nM	1760 nM	3410 nM	1520 nM	–	1760 nM
–	COc1ccc(CC[C@@H](OC(=O)[C@@H]2CCCCN2C(=O)[C@@H](CC2CC2)c2cc(OC)c(OC)c(OC)c2)c2cccc(OCC(=O)O)c2)cc1OC	14 nM	8440 nM	–	–	–	–	–	–	–
–	CCC(C(=O)N1CCCC[C@H]1C(=O)O[C@H](CCc1ccc(OC)c(OC)c1)c1cccc(OCC(=O)O)c1)N1CCOCC1 (some centres unmarked)	3790 nM	> 100000 nM	10000 nM	8800 nM	2720 nM	4490 nM	–	–	–
–	COc1ccc(CC[C@@H](OC(=O)[C@@H]2CCCCN2C(=O)N[C@@H](C)c2ccccc2)c2cccc(OCC(=O)O)c2)cc1OC	670 nM	73500 nM	176 nM	94 nM	450 nM	1160 nM	–	–	–
–	COc1ccc(CC[C@@H](OC(=O)[C@@H]2CCCCN2C(=O)C(C)(C)C)c2cccc(OCC(=O)O)c2)cc1OC	426 nM	13500 nM	2280 nM	2700 nM	390 nM	947 nM	–	–	–
–	CC[C@H](C(=O)N1CCCC[C@H]1C(=O)O[C@H](CCc1ccc(OC)c(OC)c1)c1cccc(OCC(=O)O)c1)c1ccccc1	51 nM	57000 nM	123 nM	66 nM	–	93 nM	–	> 100000 nM	22.2 nM
–	C=CC[C@H](C(=O)N1CCCC[C@H]1C(=O)O[C@H](CCc1ccc(OC)c(OC)c1)c1cccc(OCC(=O)O)c1)c1cc(OC)c(OC)c(OC)c1	4.7 nM	3670 nM	3.7 nM	8.1 nM	1.53 nM	3 nM	–	3670 nM	1.53 nM
–	CCC(C(=O)N1CCCC[C@H]1C(=O)O[C@H](CCc1ccc(OC)c(OC)c1)c1cccc(OCC(=O)O)c1)c1cccs1 (some centres unmarked)	121 nM	> 10000 nM	182 nM	156 nM	62 nM	135 nM	–	–	–
–	CCC(C(=O)N1CCCC[C@H]1C(=O)O[C@H](CCc1ccc(OC)c(OC)c1)c1cccc(OCC(=O)O)c1)c1ccc(OC)cc1 (some centres unmarked)	69 nM	150000 nM	154 nM	130 nM	42 nM	91 nM	–	–	–

IC50 ([1]; read-out: F36L IC50, tested form: HCl)	Compound	IC50 [1, 7]	IC50 [2, 8]	IC50 [3]	IC50 [4]	IC50 [5, 9]	IC50 [6]	IC50 [1, 10]	IC50 [2, 11]	IC50 [5, 12]
–	COc1ccc(CC[C@@H](OC(=O)[C@@H]2CCCCN2C(=O)C(=O)c2ccccc2)c2cccc(OCC(=O)O)c2)cc1OC	375 nM	1420 nM	623 nM	13600 nM	390 nM	3920 nM	–	–	–
–	CCC[C@H](C(=O)N1CCCC[C@H]1C(=O)O[C@H](CCc1ccc(OC)c(OC)c1)c1cccc(OCC(=O)O)c1)c1cc(OC)c(OC)c(OC)c1	7.2 nM	5060 nM	–	9.2 nM	–	5.6 nM	–	–	–
–	CCC(CC)C(=O)N1CCCC[C@H]1C(=O)O[C@H](CCc1ccc(OC)c(OC)c1)c1cccc(OCC(=O)O)c1	287 nM	> 100000 nM	770 nM	240 nM	102 nM	289 nM	–	> 100000 nM	76 nM
–	CCC(C(=O)N1CCCC[C@H]1C(=O)O[C@H](CCc1ccc(OC)c(OC)c1)c1cccc(OCC(=O)O)c1)c1cc(OC)c(OC)c(OC)c1 (some centres unmarked)	7.3 nM	4760 nM	29 nM	34 nM	7 nM	9.9 nM	–	–	4.8 nM
–	COc1ccc(CC[C@@H](OC(=O)[C@@H]2CCCCN2C(=O)C(C)C)c2cccc(OCC(=O)O)c2)cc1OC	1760 nM	12100 nM	2950 nM	2700 nM	713 nM	1140 nM	–	–	–
–	CCC[C@@H](C(=O)N1CCCC[C@H]1C(=O)O[C@H](CCc1ccc(OC)c(OC)c1)c1cccc(OCC(=O)O)c1)c1cc(OC)c(OC)c(OC)c1	146 nM	–	73 nM	84 nM	–	76 nM	–	–	–
–	COc1ccc(CC[C@@H](OC(=O)[C@@H]2CCCCN2C(=O)NC2CCCCC2)c2cccc(OCC(=O)O)c2)cc1OC	121 nM	2650 nM	166 nM	486 nM	169 nM	150 nM	–	–	–
–	CCC(C(=O)N1CCCC[C@H]1C(=O)O[C@H](CCc1ccc(OC)c(OC)c1)c1cccc(OCC(=O)O)c1)c1ccccc1OC (some centres unmarked)	211 nM	45800 nM	425 nM	586 nM	93 nM	153 nM	–	–	–
–	CC[C@@H](C(=O)N1CCCC[C@H]1C(=O)O[C@H](CCc1ccc(OC)c(OC)c1)c1cccc(OCC(=O)O)c1)c1cc(OC)c(OC)c(OC)c1	212 nM	> 100000 nM	424 nM	431 nM	–	–	–	–	–
–	C=CC[C@@H](C(=O)N1CCCC[C@H]1C(=O)O[C@H](CCc1ccc(OC)c(OC)c1)c1cccc(OCC(=O)O)c1)c1cc(OC)c(OC)c(OC)c1	57 nM	–	42 nM	57 nM	–	24 nM	–	–	–
–	CC[C@H](C(=O)N1CCCC[C@H]1C(=O)O[C@H](CCc1ccc(OC)c(OC)c1)c1cccc(OCC(=O)NCC(O)CNC(=O)COc2cccc([C@@H](CCc3ccc(OC)c(OC)c3)OC(=O)[C@@H]3CCCCN3C(=O)[C@@H](CC)c3cc(OC)c(OC)c(OC)c3)c2)c1)c1cc(OC)c(OC)c(OC)c1	–	–	–	–	–	–	11 nM	–	4.3 nM
–	COc1ccc(CC[C@@H](OC(=O)[C@@H]2CCCCN2C(=O)[C@@H](c2cc(OC)c(OC)c(OC)c2)C(C)C)c2cccc(OCC(=O)O)c2)cc1OC	74 nM	> 100000 nM	46 nM	119 nM	–	106 nM	–	–	–
–	COc1ccc(CC[C@@H](OC(=O)[C@@H]2CCCCN2C(=O)C2CCCCC2C)c2cccc(OCC(=O)O)c2)cc1OC (some centres unmarked)	53 nM	> 10000 nM	227 nM	141 nM	79 nM	85 nM	–	–	–
–	COc1ccc(CC[C@@H](OC(=O)[C@@H]2CCCCN2C(=O)N[C@H](C)c2ccccc2)c2cccc(OCC(=O)O)c2)cc1OC	126 nM	4200 nM	218 nM	406 nM	381 nM	368 nM	–	–	–
–	CC[C@H](C(=O)N1CCCC[C@H]1C(=O)O[C@H](CCc1ccc(OC)c(OC)c1)c1cccc(OCC(=O)O)c1)c1ccc(Cl)cc1	56 nM	17600 nM	62 nM	81 nM	34 nM	54 nM	–	–	–
–	CC[C@@H](C(=O)N1CCCC[C@H]1C(=O)O[C@H](CCc1ccc(OC)c(OC)c1)c1cccc(OCC(=O)O)c1)c1ccc(Cl)cc1	441 nM	49900 nM	181 nM	332 nM	226 nM	294 nM	–	–	–
32 nM	CC[C@H](C(=O)N1CCCC[C@H]1C(=O)O[C@H](CCc1cccnc1)c1cccc(OCC(=O)O)c1)c1cc(OC)c(OC)c(OC)c1	–	–	–	–	–	–	–	–	–

Where two headings read alike, the source gives them in different places.
